Measured values published in US20110039935A1, “USE OF PHARMACOLOGICALLY ACTIVE CHEMICAL COMPOUNDS” (ENTRESS AB, priority 2007, published 2011).

Assay: Solubility of AKG salts

SMILES | solubility relative to Ca−AKG [times higher] | solubility [g per 100 ml]
O=C([O-])CCC(=O)C(=O)[O-].[Na+].[Na+] [Na−AKG, sodium alpha-ketoglutarate] | 50 | –
O=C([O-])CCC(=O)C(=O)[O-].[Ca+2] [Ca−AKG, calcium alpha-ketoglutarate] | – | 2
